Structures are written as SMILES. Only a part is listed here, and it is no random draw. Some results for these compounds are left out of this collection, so the calls shown say nothing about other tests. Activity calls are given as the source filed them. Rule as the data show it: active = inhibition above about 29%; inactive = the rest.

By UniProt entry, the sequences of proteins in these tests, tags left out.
UniProt O95977, whole entry: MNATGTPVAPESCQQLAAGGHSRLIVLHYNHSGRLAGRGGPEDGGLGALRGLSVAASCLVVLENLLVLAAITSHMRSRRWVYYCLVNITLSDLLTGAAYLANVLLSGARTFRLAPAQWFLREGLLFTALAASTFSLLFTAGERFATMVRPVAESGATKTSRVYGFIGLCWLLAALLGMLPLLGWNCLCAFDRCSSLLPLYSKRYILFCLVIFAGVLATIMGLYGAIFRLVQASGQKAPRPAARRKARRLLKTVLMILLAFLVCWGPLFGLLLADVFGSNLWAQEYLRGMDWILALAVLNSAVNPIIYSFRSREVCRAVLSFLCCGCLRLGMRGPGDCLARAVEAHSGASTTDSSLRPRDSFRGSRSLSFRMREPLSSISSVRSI

This assay addresses Sphingosine 1-phosphate receptor 4 (Homo sapiens) (UniProt O95977). Briefly: blockers of human S1P4 receptor – cell-based, primary screen (AID 1510).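 Also: 0% = wells stimulated with agonist and 100% = vehicle wells without agonist.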 The settings on record: S1P4-expressing cells, antagonist mode, reporter read-out; at 4.98 µM; active compounds read high.
As usually defined, the inhibition is the relative decrease from the control value, in per cent. With `COc1ccc(Br)c(C(=O)NCC2(N3CCCCC3)CCCCC2)c1`, the inhibition is inactive: 16.3%. As for `CN(C)c1cccc(C(=O)NCC2(N(C)C)CCCCC2)c1`, the figure is inactive: -7.64%; as for `O=C(OC1CN2CCC1CC2)C(CO)(c1ccccc1)c1ccccc1` (stereo unspecified), inactive: -9.32%. The same measure for `COc1cccc(C(=O)NCC2(N3CCCCC3)CCCCC2)c1`: inactive: 0.34%; for `C=CCN1CCN(CCOC(=O)C(O)(c2ccccc2)c2ccccc2)CC1`: inactive: -0.88%. The same measure for `CCN1CCCC(OC(=O)C2(O)c3ccccc3C=Cc3ccccc32)C1` (stereo unspecified): inactive: -14.8%; for `CN(C)C1CCCC1OC(=O)C(O)(c1ccccc1)c1ccccc1` (stereo unspecified): inactive: -17.4%. Turning to `Cc1ccccc1C(=O)NCC1(N2CCCCC2)CCCCC1`, the inhibition was inactive: -18.3%. As for `CCN(CC)CC(C)C(C)OC(=O)C(O)(c1ccccc1)c1ccccc1` (stereo unspecified), the figure is inactive: -4.56%.

Take `CC(C)N1C(=O)CC2(CCN(CCOC(=O)C(O)(c3ccccc3)c3ccccc3)CC2)C1=O`: the inhibition was inactive: -17.1%.

On to `O=C(NCC1(N2CCCCC2)CCCCC1)c1cc([N+](=O)[O-])ccc1Cl`, for which the inhibition was inactive: 22.9%.
